ChEMBL document CHEMBL3638402, “Quarternized buprenorphine analogs” (2015)

Legend:
[1] = molecular target: Kappa-type opioid receptor (Homo sapiens, UniProt P41145); assay: Radioligand Dose-Displacement Binding Assay: Membranes from recombinant HEK-293 cells expressing the human kippa opioid receptor (cloned in house) were prepared by lysing cells in ice cold hypotonic buffer (2.5 mM MgCl2, 50 mM HEPES, pH 7.4) (10 mL/10 cm dish) followed by homogenization with a tissue grinder/Teflon pestle. Membranes were collected by centrifugation at 30,000xg for 15 min at 4 C. a; settings: sf9
[2] = molecular target: Mu-type opioid receptor (Homo sapiens, UniProt P35372); assay: Radioligand Dose-Displacement Binding Assay: Radioligand dose-displacement binding assays for -opioid receptors used 0.3 nM [3H]-diprenorphine (Perkin Elmer, Shelton, Conn.), with […] membrane protein/well in a final volume of 500 ul binding buffer (10 mM MgCl2, 1 mM EDTA, 5% DMSO, 50 mM HEPES, pH 7.4). Reactions were carried out in the absence or presence of increasing concentrations of unlabele
[3] = molecular target: Delta-type opioid receptor (Homo sapiens, UniProt P41143); assay: Radioligand Dose-Displacement Binding Assay: δ-opioid Receptor Binding Assay Procedures were conducted as follows. Radioligand dose-displacement assays used 0.3 nM [3H]-Naltrindole (Perkin Elmer, Shelton, Conn.; 33.0 Ci/mmole) with 5 μg membrane protein (Perkin Elmer, Shelton, Conn.) in a final volume of 500 μl binding buffer (5 mM MgCl2, 5% DMSO, 50 mM Trizma base, pH 7.4). Non-specific binding w

Structure (SMILES)	Ki [1]	Ki [2]	Ki [3]
COc1ccc2c3c1O[C@H]1[C@@]4(OC)CC[C@@]5(C[C@@H]4COCc4cc6c(cc4Cl)OCO6)[C@@H](C2)[N+](C)(CC2CC2)CC[C@]315 (stereo partly specified)	66.7 nM	163 nM	18400 nM
CO[C@]12CC[C@@]3(C[C@@H]1COCc1ccccc1C)[C@H]1Cc4ccc(O)c5c4[C@@]3(CC[N+]1(C)CC1CC1)[C@H]2O5 (stereo partly specified)	0.47 nM	–	–
COc1ccc2c3c1O[C@H]1[C@@]4(OC)CC[C@@]5(C[C@@H]4COCc4ccoc4)[C@@H](C2)[N+](C)(CC2CC2)CC[C@]315 (stereo partly specified)	35 nM	5810 nM	–
COc1ccc2c3c1O[C@H]1[C@@]4(OC)CC[C@@]5(C[C@@H]4COCc4ccco4)[C@@H](C2)[N+](C)(CC2CC2)CC[C@]315 (stereo partly specified)	10.6 nM	571 nM	4790 nM
COc1ccc2c3c1O[C@H]1[C@@]4(OC)CC[C@@]5(C[C@@H]4COc4ccccc4)[C@@H](C2)[N+](C)(CC2CC2)CC[C@]315 (stereo partly specified)	348 nM	1490 nM	–
COc1ccc2c3c1O[C@H]1[C@@]4(OC)CC[C@@]5(C[C@@H]4COCc4ccc(C)cc4)[C@@H](C2)[N+](C)(CC2CC2)CC[C@]315 (stereo partly specified)	117 nM	242 nM	10100 nM
COc1ccc2c3c1O[C@H]1[C@@]4(OC)CC[C@@]5(C[C@@H]4COCc4ccc6ccccc6c4)[C@@H](C2)[N+](C)(CC2CC2)CC[C@]315 (stereo partly specified)	165 nM	182 nM	–
COc1ccc2c3c1O[C@H]1[C@@]4(OC)CC[C@@]5(C[C@@H]4COCc4ccc(C(C)(F)F)cc4)[C@@H](C2)[N+](C)(CC2CC2)CC[C@]315 (stereo partly specified)	112 nM	262 nM	–
CO[C@]12CC[C@@]3(C[C@@H]1COCc1ccoc1)[C@H]1Cc4ccc(O)c5c4[C@@]3(CC[N+]1(C)CC1CC1)[C@H]2O5 (stereo partly specified)	–	47.1 nM	193 nM
COc1ccc2c3c1O[C@H]1[C@@]4(OC)CC[C@@]5(C[C@@H]4COCc4cc6ccccc6o4)[C@@H](C2)[N+](C)(CC2CC2)CC[C@]315 (stereo partly specified)	17.3 nM	–	–
COc1ccc2c3c1O[C@H]1[C@@]4(OC)CC[C@@]5(C[C@@H]4COCc4ccc(Cl)c(Cl)c4)[C@@H](C2)[N+](C)(CC2CC2)CC[C@]315 (stereo partly specified)	–	67.2 nM	4410 nM
COc1ccc2c3c1O[C@H]1[C@@]4(OC)CC[C@@]5(C[C@@H]4COCc4ccc(C(N)=O)cc4)[C@@H](C2)[N+](C)(CC2CC2)CC[C@]315 (stereo partly specified)	1030 nM	–	–
COc1ccc(COC[C@H]2C[C@@]34CC[C@]2(OC)[C@@H]2Oc5c(OC)ccc6c5[C@@]23CC[N+](C)(CC2CC2)[C@@H]4C6)cc1 (stereo partly specified)	57 nM	544 nM	–
